Literature values in patent US10292976B2, “Anti-malarial agent” (RIKEN, priority 2014, dated 2019).

Tested on: malaria parasites
Conditions: Non-patent Document 2; cited from earlier work

For O=C(O)c1cccc(C(=O)O)n1 [DPA, dipicolinic acid], the “antimalarial activity ED50” value is listed as 1 mM.
